Results reported in patent US12564559B2, “Combinations of LSD1 inhibitors for use in the treatment of solid tumors” (Oryzon Genomics, S.A., priority 2016, dated 2026).

Key:
SCLC cell lines = test: In vitro Synergy Score of combinations with the LSD1 inhibitor in expanded panel of SCLC cell lines, Example 3 / Table 5; type: cell-based, human; settings: for Synergy Scores of SCLC cell lines DMS-114: SCLC cell line DMS-114; for Synergy Scores of SCLC cell lines DMS-114 / Synergy Scores of SCLC cell lines NCI-H69 / Synergy Scores of SCLC cell lines NCI-H187 / Synergy Scores of SCLC cell lines NCI-H446 / Synergy Scores of SCLC cell lines NCI-H510 / Synergy Scores of SCLC cell lines NCI-H526 / Synergy Scores of SCLC cell lines NCI-H1417 / Synergy Scores of SCLC cell lines NCI-H1876 / Synergy Scores of SCLC cell lines NCI-H2171 / Synergy Scores of SCLC cell lines SHP-77: 2nd API combined with (trans)-N1-((1R,2S)-2-phenylcyclopropyl)cyclohexane-1,4-diamine, scores >6.4 considered significant; for Synergy Scores of SCLC cell lines NCI-H69: SCLC cell line NCI-H69; for Synergy Scores of SCLC cell lines NCI-H187: SCLC cell line NCI-H187; for Synergy Scores of SCLC cell lines NCI-H446: SCLC cell line NCI-H446; for Synergy Scores of SCLC cell lines NCI-H510: SCLC cell line NCI-H510; for Synergy Scores of SCLC cell lines NCI-H526: SCLC cell line NCI-H526; for Synergy Scores of SCLC cell lines NCI-H1417: SCLC cell line NCI-H1417; for Synergy Scores of SCLC cell lines NCI-H1876: SCLC cell line NCI-H1876; for Synergy Scores of SCLC cell lines NCI-H2171: SCLC cell line NCI-H2171; for Synergy Scores of SCLC cell lines SHP-77: SCLC cell line SHP-77
[1] = tested on: SCLC and NSCLC cell lines; test: Synergy Score (Loewe additivity, ATPLite growth inhibition) of combinations with the LSD1 inhibitor, Example 2 / Table 4; settings: 2nd API combined with (trans)-N1-((1R,2S)-2-phenylcyclopropyl)cyclohexane-1,4-diamine; for Synergy Scores in NSCLC A549: NSCLC cell line A549; for Synergy Scores in NSCLC CAL-12T: NSCLC cell line CAL-12T; for Synergy Scores in NSCLC NCI-H441: NSCLC cell line NCI-H441; for Synergy Scores in SCLC NCI-H187: SCLC cell line NCI-H187; for Synergy Scores in SCLC NCI-H446: SCLC cell line NCI-H446; for Synergy Scores in SCLC NCI-H510: SCLC cell line NCI-H510; for Synergy Scores in SCLC NCI-H1048: SCLC cell line NCI-H1048; for Synergy Scores in SCLC NCI-H1417: SCLC cell line NCI-H1417; for Synergy Scores in SCLC NCI-H1876: SCLC cell line NCI-H1876; for Synergy Scores in SCLC SBC-5: SCLC cell line SBC-5
SCLC = test: Combination of the LSD1 inhibitor with SCLC standards of care etoposide and carboplatin (FIG. 2A); settings: combination with (trans)-N1-((1R,2S)-2-phenylcyclopropyl)cyclohexane-1,4-diamine

Cc1sc2c(c1C)C(c1ccc(Cl)cc1)=N[C@@H](CC(=O)OC(C)(C)C)c1nnc(C)n1-2 [(+)-JQ1, (S)-tert-butyl 2-(4-(4-chlorophenyl)-2,3,9-trimethyl-6H-thieno[3,2-f][1,2,4]triazolo[4,3-a][1,4]diazepin-6-yl)acetate] was tested, and the “Synergy Scores of SCLC cell lines DMS-114” value (SCLC cell lines) was 1.55, the “Synergy Scores of SCLC cell lines NCI-H69” value (SCLC cell lines) was 6.44 and the “Synergy Scores of SCLC cell lines NCI-H187” value (SCLC cell lines) was 2.83. The “Synergy Scores of SCLC cell lines NCI-H446” value (SCLC cell lines) was 4.03, the “Synergy Scores of SCLC cell lines NCI-H510” value (SCLC cell lines) was 24.21 and the “Synergy Scores of SCLC cell lines NCI-H526” value (SCLC cell lines) was 8.06. The “Synergy Scores of SCLC cell lines NCI-H1417” value (SCLC cell lines) was 7.87, the “Synergy Scores of SCLC cell lines NCI-H1876” value (SCLC cell lines) was 9.15 and the “Synergy Scores of SCLC cell lines NCI-H2171” value (SCLC cell lines) was 8.69. The “Synergy Scores of SCLC cell lines SHP-77” value (SCLC cell lines) was 0.45, the “synergy with LSD1 inhibition” value (SCLC cell lines; combination with (trans)-N1-((1R,2S)-2-phenylcyclopropyl)cyclohexane-1,4-diamine, expanded panel of SCLC cell lines) was “highly synergistic” and the “Synergy Scores in NSCLC A549” value [1] was 0.07. For the same compound, the “Synergy Scores in NSCLC CAL-12T” value [1] was 0.51, the “Synergy Scores in NSCLC NCI-H441” value [1] was 0.12 and the “Synergy Scores in SCLC NCI-H187” value [1] was 11.29. The “Synergy Scores in SCLC NCI-H446” value [1] was 1.74, the “Synergy Scores in SCLC NCI-H510” value [1] was 11.88 and the “Synergy Scores in SCLC NCI-H1048” value [1] was 0.68. The “Synergy Scores in SCLC NCI-H1417” value [1] was 39.59, the “Synergy Scores in SCLC NCI-H1876” value [1] was 18.65 and the “Synergy Scores in SCLC SBC-5” value [1] was 0.15.

In the case of CC1(C)CCC(c2ccc(Cl)cc2)=C(CN2CCN(c3ccc(C(=O)NS(=O)(=O)c4ccc(N[C@H](CCN5CCOCC5)CSc5ccccc5)c(S(=O)(=O)C(F)(F)F)c4)cc3)CC2)C1 [ABT-263, 4-(4-{[2-(4-Chlorophenyl)-5,5-dimethyl-1-cyclohexen-1-yl]methyl}-1-piperazinyl)-N-[(4-{[(2R)-4-(4-morpholinyl)-1-(phenylsulfanyl)-2-butanyl]amino}-3-[(trifluoromethyl)sulfonyl]phenyl)sulfonyl]benzamide], the “Synergy Scores of SCLC cell lines DMS-114” value (SCLC cell lines) is reported as 0.26, the “Synergy Scores of SCLC cell lines NCI-H69” value (SCLC cell lines) is reported as 8.22 and the “Synergy Scores of SCLC cell lines NCI-H187” value (SCLC cell lines) is reported as 2.51. The “Synergy Scores of SCLC cell lines NCI-H446” value (SCLC cell lines) was 1.41, the “Synergy Scores of SCLC cell lines NCI-H510” value (SCLC cell lines) was 10.70 and the “Synergy Scores of SCLC cell lines NCI-H526” value (SCLC cell lines) was 4.18. For the same compound, the “Synergy Scores of SCLC cell lines NCI-H1417” value (SCLC cell lines) was 12.21, the “Synergy Scores of SCLC cell lines NCI-H1876” value (SCLC cell lines) was 21.80 and the “Synergy Scores of SCLC cell lines NCI-H2171” value (SCLC cell lines) was 6.19. The “Synergy Scores of SCLC cell lines SHP-77” value (SCLC cell lines) was 3.59, the “Synergy Scores in NSCLC A549” value [1] was 0.89 and the “Synergy Scores in NSCLC CAL-12T” value [1] was 0.01. The “Synergy Scores in NSCLC NCI-H441” value [1] was 0.75, the “Synergy Scores in SCLC NCI-H187” value [1] was 14.31 and the “Synergy Scores in SCLC NCI-H446” value [1] was 0.29. The “Synergy Scores in SCLC NCI-H510” value [1] was 18.16, the “Synergy Scores in SCLC NCI-H1048” value [1] was 14.92 and the “Synergy Scores in SCLC NCI-H1417” value [1] was 19.10. For the same compound, the “Synergy Scores in SCLC NCI-H1876” value [1] was 23.63 and the “Synergy Scores in SCLC SBC-5” value [1] was 3.35.

With [NH2][Pt]1([NH2])[O]C(=O)C2(CCC2)C(=O)[O]1 [Carboplatin, cis-diammine(cyclobutane-1,1-dicarboxylate-O,O′)platinum(II)] the “synergy with the LSD1 inhibitor to induce a cytotoxic response” value (SCLC) was “synergized”, the “Synergy Scores in NSCLC A549” value [1] was 0.03 and the “Synergy Scores in NSCLC CAL-12T” value [1] was 0.06. For the same compound, the “Synergy Scores in NSCLC NCI-H441” value [1] was 1.27, the “Synergy Scores in SCLC NCI-H187” value [1] was 7.49 and the “Synergy Scores in SCLC NCI-H446” value [1] was 1.58. The “Synergy Scores in SCLC NCI-H510” value [1] was 9.96, the “Synergy Scores in SCLC NCI-H1048” value [1] was 1.47 and the “Synergy Scores in SCLC NCI-H1417” value [1] was 10.45. For the same compound, the “Synergy Scores in SCLC NCI-H1876” value [1] was 10.90 and the “Synergy Scores in SCLC SBC-5” value [1] was 0.22.
